## Reported properties for industrial, environmental and drug-like chemicals

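These are experimental values that the OPERA curators gathered from public databases to train and test their QSAR models. The files give a single number for a compound and property, which may rest on several reports. Conditions of the individual experiments are not part of the data. A value may pool stereoisomers or salt forms, and the file does not say which form was measured. Some upstream entries may be estimates or bounds without being marked so.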

Melting points are in °C. The boiling point refers to atmospheric pressure (760 mmHg), by the definition of the set. logP is the log10 of the octanol-water partition coefficient; higher is more lipophilic. Water solubility is log10 of mol/L, nominally at 25 °C; higher is more soluble. Vapor pressure is log10 of mmHg; the set covers 15 to 30 °C, mostly 20 to 25 °C. The unbound fraction in human plasma runs from 0 (all bound) to 1 (all free). Intrinsic clearance (human, µL/min per 10^6 hepatocytes): higher is faster turnover, and 0 stands for none detected. Cells with "n/a" have no entry in this list.

| SMILES | name | mp (°C) | BP (°C) | logP (octanol/water) | log solubility (log10 mol/L) | log vapor pressure (log10 mmHg) | fraction unbound | intrinsic clearance (µL/min/10^6 cells) |
|---|---|---|---|---|---|---|---|---|
| CN(C)c1cccc(O)c1 | 3-dimethylaminophenol | n/a | n/a | n/a | n/a | n/a | 0.242 | 0 |
| CC(=O)C1CCCCC1=O (stereo not given) | 2-Acetyl-1-cyclohexanone | 26 | n/a | n/a | -1.369 | -0.932 | n/a | n/a |
| COC(=O)[C@H]1[C@H]2C[C@@H]3c4[nH]c5ccccc5c4CCN3C[C@H]2C[C@@H](OC(=O)c2cc(OC)c(OC)c(OC)c2)[C@@H]1OC | Deserpidine | n/a | n/a | 3.3 | -4.717 | n/a | n/a | n/a |
| CCCCCCCCCCCCCCCCOC(=O)/C=C/C(=O)OCCCCCCCCCCCCCCCC | 2-Butenedioic acid (2E)-, di-C16-18-alkyl esters | 54 | n/a | n/a | -7.053 | n/a | n/a | n/a |
| COc1ccc(C(O)CC(O)c2ccc(C(C)(C)C)cc2)cc1 (stereo not given) | 1-(4-tert-Butylphenyl)-3-(4-methoxyphenyl)-1,3-propanediol | 50.35 | n/a | 3.8 | -3.838 | n/a | n/a | n/a |
| C=CC(=O)OCCCCCCOc1ccc(C(=O)Oc2ccc(OC(=O)c3ccc(OCCCCCCOC(=O)C=C)cc3)c(C)c2)cc1 | n/a | 74.7 | n/a | n/a | -6.351 | n/a | n/a | n/a |
| CCCCC[C@@H]1C(=O)CC[C@H]1C(=O)OC | Methyl (1R,2S)-3-oxo-2-pentylcyclopentanecarboxylate | n/a | 283 | 2.8 | -2.572 | -2.667 | n/a | n/a |
| CCCCCCCCCCCCCCCCCCCCCCOC(=O)CCCCCCCCCCCCCCCCCCCCC | Behenyl behenate | 74.25 | 395 | n/a | -7.113 | n/a | n/a | n/a |
| CCCC1CCC(=O)O1 (stereo not given) | gamma-Heptalactone | n/a | n/a | 1 | n/a | 0.322 | n/a | n/a |
| Fc1cc(Br)cc(F)c1F | 1-Bromo-3,4,5-trifluorobenzene | n/a | n/a | 3.2 | -3.057 | 0.765 | n/a | n/a |
| CC1=NN(c2cccc(S(=O)(=O)[O-])c2)C(=O)C1/N=N/c1cc(Cl)c(Cl)cc1S(=O)(=O)[O-].[Ca+2] (stereo partly drawn) | n/a | n/a | n/a | -0.9 | -3.839 | n/a | n/a | n/a |
| CCCCC1CCC(=O)O1 (stereo not given) | 4-Hydroxyoctanoic acid lactone | -50.2 | n/a | n/a | -1.245 | n/a | n/a | n/a |
| CCCCCC/C=C/C(=O)OC | Methyl (2E)-2-nonenoate | n/a | n/a | n/a | -3.668 | -0.917 | n/a | n/a |
| CCCCCC[C@H](C/C=C\CCCCCCCC(=O)OCC(COC(=O)CCCCCCC/C=C\C[C@@H](CCCCCC)OC(C)=O)OC(=O)CCCCCCC/C=C\C[C@@H](CCCCCC)OC(C)=O)OC(C)=O | Glyceryl triacetyl ricinoleate | -75.88 | n/a | n/a | -8.849 | -9.639 | n/a | n/a |
| O=C1NC(=O)C(c2ccc(O)cc2)N1 (stereo not given) | 5-(4-Hydroxyphenyl)imidazolidine-2,4-dione | 271.9 | n/a | -0.03 | -2.173 | n/a | n/a | n/a |
| NC1=CC(=Nc2ccc(N)cc2)C(N)=CC1=Nc1ccc(N)cc1 | Bandrowski's base | n/a | n/a | n/a | -1.143 | -10.37 | n/a | n/a |
| CC1CCOCC1 | Tetrahydro-4-methyl-2H-pyran | n/a | n/a | 1.9 | n/a | 1.349 | n/a | n/a |
| CN[C@@H](C)c1cccc(O)c1 | Phenol, 3-[(1S)-1-(methylamino)ethyl]- | 167.6 | n/a | 0.32 | n/a | -6.235 | n/a | n/a |
| O=C(O)c1cn(C2CC2)c2c(F)c(N3C[C@@H]4CCCN[C@@H]4C3)c(F)cc2c1=O | 8-Desmethoxy-8-fluoro moxifloxacin | n/a | n/a | -0.5 | -2.192 | n/a | n/a | n/a |
| CCCCC(C(=O)OCC)C(=O)OCC | Diethyl butylmalonate | n/a | n/a | 3.4 | -2.816 | -1.974 | n/a | n/a |
| OC1CCc2[nH]c3ccccc3c2C1 (stereo not given) | 2,3,4,9-tetrahydro-1H-carbazol-3-ol | 146.2 | n/a | 2.07 | -2.697 | -6.216 | n/a | n/a |
| CC(C)NC(=N)NC(=N)Nc1ccc(Cl)cc1 | Chlorguanide | n/a | n/a | n/a | -2.948 | n/a | 0.15 | n/a |
| CCOc1ccc(NC(=O)C(N=Nc2ccc(-c3ccc(N=NC(C(C)=O)C(=O)Nc4ccc(OCC)cc4)c(Cl)c3)cc2Cl)C(C)=O)cc1 (stereo not given) | C.I. Pigment Yellow 152 | 310 | n/a | 1.1 | n/a | n/a | n/a | n/a |
| CN(C)CCCNC1CC(C)(C)NC(C)(C)C1 | n/a | -79 | 283.2 | 3.772 | n/a | -2.426 | n/a | n/a |
| CC(C)(O)CCCC1=CCC(C=O)CC1 (stereo not given) | 4-(4-Hydroxy-4-methylpentyl)cyclohex-3-ene-1-carbaldehyde | n/a | n/a | 2.1 | n/a | -4.067 | n/a | n/a |
| C=C(C)C(=O)O[Si](C(C)C)(C(C)C)C(C)C | Tri(propan-2-yl)silyl 2-methylprop-2-enoate | n/a | 238.5 | n/a | -6.084 | n/a | n/a | n/a |
| COC(=O)C(C)(C)O | Methyl 2-hydroxy-2-methylpropionate | n/a | n/a | 0.953 | n/a | 0.797 | n/a | n/a |
| O=C1CCCCCCCCCCCC(=O)OCCO1 | 1,4-Dioxacycloheptadecane-5,17-dione | n/a | n/a | 4.3 | -4.245 | n/a | n/a | n/a |
| COC(=O)COc1nc(F)c(Cl)c(N)c1Cl | n/a | n/a | n/a | 2.22 | -3.967 | -6.056 | n/a | n/a |
| CCn1c(O)c(/N=N/c2cc(Nc3nc(Cl)nc(Nc4ccc(-c5nc6ccc(C)c(S(=O)(=O)[O-])c6s5)cc4)n3)ccc2S(=O)(=O)[O-])c(C)c(C(N)=O)c1=O.[Na+].[Na+] | n/a | 347 | n/a | -2.63 | n/a | n/a | n/a | n/a |
| NNC(=O)CCCCC(=O)NN | Hexanedihydrazide | n/a | n/a | -2.05 | n/a | -9.648 | n/a | n/a |
| O=C(ON1C(=O)CCC1=O)ON1C(=O)CCC1=O | Di(succinimido) carbonate | n/a | n/a | -0.878 | n/a | -6.058 | n/a | n/a |
| CCCCCCCCCCCC(=O)OC1CC(C)(C)NC(C)(C)C1 | 2,2,6,6-Tetramethylpiperidin-4-yl dodecanoate | 7 | n/a | n/a | -5.252 | n/a | n/a | n/a |
| COC(=O)C(F)(F)C(F)OC(F)(F)C(F)(F)C(F)(F)OC(F)(F)F (stereo not given) | Methyl perfluoro-3-(3-methoxypropoxy)-3H-propanoate | n/a | 149.5 | n/a | n/a | 0.271 | n/a | n/a |

5 of these entries, quoted again:

| SMILES | name | mp (°C) | BP (°C) | logP (octanol/water) | log solubility (log10 mol/L) | log vapor pressure (log10 mmHg) | fraction unbound | intrinsic clearance (µL/min/10^6 cells) |
|---|---|---|---|---|---|---|---|---|
| CC(C)NC(=N)NC(=N)Nc1ccc(Cl)cc1 | Chlorguanide | n/a | n/a | n/a | -2.948 | n/a | 0.15 | n/a |
| CCn1c(O)c(/N=N/c2cc(Nc3nc(Cl)nc(Nc4ccc(-c5nc6ccc(C)c(S(=O)(=O)[O-])c6s5)cc4)n3)ccc2S(=O)(=O)[O-])c(C)c(C(N)=O)c1=O.[Na+].[Na+] | n/a | 347 | n/a | -2.63 | n/a | n/a | n/a | n/a |
| C=CC(=O)OCCCCCCOc1ccc(C(=O)Oc2ccc(OC(=O)c3ccc(OCCCCCCOC(=O)C=C)cc3)c(C)c2)cc1 | n/a | 74.7 | n/a | n/a | -6.351 | n/a | n/a | n/a |
| CCCCCCCCCCCCCCCCCCCCCCOC(=O)CCCCCCCCCCCCCCCCCCCCC | Behenyl behenate | 74.25 | 395 | n/a | -7.113 | n/a | n/a | n/a |
| CCCCCC[C@H](C/C=C\CCCCCCCC(=O)OCC(COC(=O)CCCCCCC/C=C\C[C@@H](CCCCCC)OC(C)=O)OC(=O)CCCCCCC/C=C\C[C@@H](CCCCCC)OC(C)=O)OC(C)=O | Glyceryl triacetyl ricinoleate | -75.88 | n/a | n/a | -8.849 | -9.639 | n/a | n/a |

Data: OPERA 2.9 data sets, kmansouri/OPERA on GitHub.